From BindingDB's records for doi:10.1021/jm800182c (University of Tennessee Health Science Center, 2008)

Target: T1, Calpain-1 catalytic subunit (Sus scrofa, UniProt P35750)
T1 sequence (P35750 whole entry): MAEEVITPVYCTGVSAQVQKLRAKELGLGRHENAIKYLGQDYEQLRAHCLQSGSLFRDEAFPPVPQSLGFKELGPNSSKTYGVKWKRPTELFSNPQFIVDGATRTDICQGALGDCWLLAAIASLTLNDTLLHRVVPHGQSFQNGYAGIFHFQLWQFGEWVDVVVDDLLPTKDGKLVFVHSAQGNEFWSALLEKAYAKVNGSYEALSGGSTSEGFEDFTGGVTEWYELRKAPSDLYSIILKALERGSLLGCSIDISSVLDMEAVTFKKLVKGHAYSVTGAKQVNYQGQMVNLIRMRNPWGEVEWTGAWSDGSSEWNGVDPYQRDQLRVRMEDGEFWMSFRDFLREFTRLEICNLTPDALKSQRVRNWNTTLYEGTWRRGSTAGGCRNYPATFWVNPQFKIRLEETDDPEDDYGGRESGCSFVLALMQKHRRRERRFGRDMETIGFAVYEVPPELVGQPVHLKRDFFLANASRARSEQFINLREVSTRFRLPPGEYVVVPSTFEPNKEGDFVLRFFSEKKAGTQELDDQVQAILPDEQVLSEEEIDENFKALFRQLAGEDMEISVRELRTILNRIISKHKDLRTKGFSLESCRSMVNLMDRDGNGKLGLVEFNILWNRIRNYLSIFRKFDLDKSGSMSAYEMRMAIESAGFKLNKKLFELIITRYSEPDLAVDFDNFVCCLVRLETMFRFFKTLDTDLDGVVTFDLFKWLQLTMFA
Assay: mu-Calpain Inhibition Assay
Conditions: pH 7.4; 22 °C
Procedure: Assays were initiated by addition of CaCl2, and the increase in fluorescence (ex @370 nm, em @440 nm) was monitored. MDL28170 and buffer with 2% DMSO were used as controls. Ki values were determined according to Dixon methods.

## COC(=O)C(=O)C(Cc1ccccc1)NC(=O)[C@H](CC(C)C)NC(=O)CC(c1ccccc1)c1ccccc1 (stereo partly drawn) [methyl 3-[(2S)-2-(3,3-diphenylpropanamido)-4-methylpentanamido]-2-oxo-4-phenylbutanoate]
  Ki: 2150 nM
